Molecular target: Nxf1-EYFP (UniProt Q9UBU9)
Experiment: FRET or BRET; sensitized emission FRET (normalized FRET, NFRET) in live HeLa cells; ECFP fusion donor, EYFP fusion acceptor; mean over the whole nucleus; NFRET >5% taken as a significant interaction; cells also imaged after 2 h 10 ug/ml actinomycin D

Substance: Alyref-ECFP (from UniProt Q86V81 1-257) (natural protein; other documents disagree on this pair)
- NFRET: 8.14
